Key:
human CB2 (hCB2) = target: T1, human CB2 (hCB2) (Homo sapiens, UniProt P34972); test: 35S GTPγS binding assay, hCB2 agonist; type: biochemical
T1 construct: (cDNA clone) CNR0200000
Procedure: (§1) cDNA expression clones for human CB1 (hCB1, Genbank Accession No. AY225225) and human CB2 (hCB2, Genbank Accession No. AY242132) expressed in vector pcDNA3.1+ were purchased from UMR cDNA Resource Center, Rolla, Mo. (Clone ID CNR01L000 for hCB1; CNR0200000 for hCB2).
Membranes were isolated from transfected cells as follows. Monolayers of cultured cells were washed twice with phosphate-buffered saline (PBS). […] Homogenates were centrifuged 10 minutes at 1000×g at 4° C. The supernatant was collected and was centrifuged for 1 hour at 40,000×g. The supernatant was then decanted and the resulting pellet was re-suspended in 20 mM HEPES, pH 7.4, 5 mM MgCl2, 1 mM EDTA, 10% sucrose with complete cocktail protease inhibitors. Protein concentration of membrane suspensions were measured by Bradford Protein Assay using bovine serum albumin as the standard (BioRad catalog #500-0006). Protein concentrations of membrane suspensions were adjusted with the final buffer in the range of 5 to 10 mg/mL and were stored at −80° C. until further use.
(§2) Functional assays which monitor G-protein coupled receptor or downstream cellular responses can be used to characterize potential CB1 receptor and/or CB2 receptor agonist or antagonist activities. Direct activation (or inhibition of activation) can be monitored using a GTPγS assay (membrane-based assay) or cAMP assay (whole cell-based assay). […]

Amino acid sequences for entries named in this document (tags omitted).
UniProt P34972, whole entry: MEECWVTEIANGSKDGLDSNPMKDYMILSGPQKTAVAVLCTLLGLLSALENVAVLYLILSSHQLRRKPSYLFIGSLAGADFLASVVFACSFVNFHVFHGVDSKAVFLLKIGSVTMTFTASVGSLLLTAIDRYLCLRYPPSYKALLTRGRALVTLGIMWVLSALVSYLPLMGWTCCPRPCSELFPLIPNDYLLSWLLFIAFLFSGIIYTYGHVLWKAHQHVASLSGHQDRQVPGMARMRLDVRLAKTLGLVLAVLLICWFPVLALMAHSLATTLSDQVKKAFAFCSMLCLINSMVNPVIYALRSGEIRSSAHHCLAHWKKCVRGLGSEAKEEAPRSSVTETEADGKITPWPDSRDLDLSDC
UniProt P21554, whole entry: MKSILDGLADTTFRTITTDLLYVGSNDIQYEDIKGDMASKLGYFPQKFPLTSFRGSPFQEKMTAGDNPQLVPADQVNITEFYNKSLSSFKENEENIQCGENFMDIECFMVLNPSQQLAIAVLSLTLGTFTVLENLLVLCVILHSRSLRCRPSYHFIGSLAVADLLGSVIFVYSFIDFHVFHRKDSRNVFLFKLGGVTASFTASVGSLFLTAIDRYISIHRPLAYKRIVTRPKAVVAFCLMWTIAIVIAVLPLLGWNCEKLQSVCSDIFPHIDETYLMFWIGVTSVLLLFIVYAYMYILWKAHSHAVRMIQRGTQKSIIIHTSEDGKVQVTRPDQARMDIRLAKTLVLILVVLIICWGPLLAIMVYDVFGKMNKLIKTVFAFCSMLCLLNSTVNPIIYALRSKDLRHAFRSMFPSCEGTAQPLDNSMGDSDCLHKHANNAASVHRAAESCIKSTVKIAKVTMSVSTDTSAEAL

human CB1 (hCB1) = target: T2, human CB1 (hCB1) (Homo sapiens, UniProt P21554); test: 35S GTPγS binding assay, hCB1 agonist; type: biochemical
T2 construct: (cDNA clone) CNR01L000
From the text: as §1
Stable, HEK-293-derived cell lines that recombinantly express hCBI or hCB2 were established. In brief, the clone hCB1 (CNR IL) or hCB2 (CNR2) was transfected into human embryonic kidney cells (HEK-293) using Lipofectamine 2000 (Gibco, Cat#11668-019) according to the manufacturer's protocol. Transfected clones were isolated by single colony purification and clones were screened for receptor expression using a whole cell, ^3H—CP 55,940 radioligand binding assay. […]
Membranes were isolated from transfected cells as follows. […] Protein concentration of membrane suspensions were measured by Bradford Protein Assay using bovine serum albumin as the standard (BioRad catalog #500-0006). […]
as §2

human CB2 receptors = target: T3, human CB2 receptors (Homo sapiens, UniProt P34972); test: cAMP assay in HEK-293 cells, hCB2 agonist; type: cell-based
T3 construct: (cDNA clone) CNR0200000
Procedure: Functional assays which monitor G-protein coupled receptor or downstream cellular responses can be used to characterize potential CB1 receptor and/or CB2 receptor agonist or antagonist activities. Direct activation (or inhibition of activation) can be monitored using a GTPγS assay (membrane-based assay) or cAMP assay (whole cell-based assay).
cAMP assays were performed in HEK-293 cells stably expressing human CB1 or CB2 receptors. […] Cells suspensions were centrifuged and the cells were washed once with PBS, were centrifuged again, and the cells were re-suspended in HBSS (Hank's Balanced Salt Solution, Cellgro, Cat #21-022-CV) solution containing 10 mM HEPES and 0.1% fatty acid free BSA (Sigma, Cat #A0281). Cell suspensions were prepared at 1,500,000 cells per ml. Stock solutions of test substances (10 mM) in DMSO were diluted to 1 mM using 30% DMSO as diluent. Test substances of solutions (1 mM) were further diluted down to 3× of final assay concentrations in the above HBSS buffer containing 0.1% BSA in the presence of 90 uM forskolin (Sigma Cat#F6886). […] Cells were lysed and cAMP concentration was measured using DiscoveRx −XS+ cAMP assay kit (DiscoveRx Corporation Ltd., Fremont, Calif., USA, Cat #90-0075-03), following the manufacturer's protocol. […]

Q: Which results are given for COc1ccc(C(=O)c2cc3ccn(CCN4CCOCC4)c3s2)cc1 [Compound 160, (4-methoxyphenyl)(6-(2-morpholinoethyl)-6H-thieno[2,3-b]pyrrol-2-yl)methanone]?
A: EC50 (human CB2 (hCB2)): 1000 to 10000 nM; EC50 (human CB1 (hCB1)): > 10000 nM; EC50 (human CB2 receptors): 100 to 1000 nM

Reference: US20130029970A1 (priority 2009, published 2013)
